Results published in US20260108513A1, “Combination of Talazoparib and Enzalutamide in the Treatment of Metastatic Castration-Resistant Prostate Cancer” (Pfizer Inc., priority 2022, published 2026).

System: mCRPC patients
Conditions: male, human, in vivo
Excerpt: This population was the primary population for evaluating safety.

Cn1ncnc1[C@H]1c2n[nH]c(=O)c3cc(F)cc(c23)N[C@@H]1c1ccc(F)cc1 [talazoparib, (8S,9R)-5-fluoro-8-(4-fluorophenyl)-9-(1-methyl-1H-1,2,4-triazol-5-yl)-8,9-dihydro-2H-pyrido[4,3,2-de]phthalazin-3(7H)-one]
anemia leading to dose reduction of talazoparib (with or without transfusion): 43.2%
